The structures appear in SMILES notation.

The first series has as its system ICR mice. The series can be described thus: Tolerance study of test drugs in mice. The conditions noted are these: 200 mg/kg intraperitoneally once daily for 4 consecutive days.
For the compound `C/C(NC(=O)N1CCCCC1)=C(/C#N)C(=O)Nc1ccc(C(F)(F)F)cc1`, the Clinical observation result is on record as “No adverse reactions”.

Consider `COC(=O)Cn1c(C)c(C#N)c(=O)n(-c2ccc(C(F)(F)F)cc2)c1=O`, for which the Clinical observation entry is “No adverse reactions”.

On to `CCn1c(C)c(C#N)c(=O)n(-c2ccc(C(F)(F)F)cc2)c1=O`, for which the Clinical observation entry is recorded as “No adverse reactions”.

Take `Cc1c(C#N)c(=O)n(-c2ccc(C(F)(F)F)cc2)c(=O)n1COC(=O)c1ccccc1`: the Clinical observation entry is recorded as “No adverse reactions”.

As for `Cc1c(C#N)c(=O)n(-c2ccc(C(F)(F)F)cc2)c(=O)n1COP(=O)(O)O`, the Clinical observation result was “No adverse reactions”.

With `Cc1[nH]c(=O)n(-c2ccc(C(F)(F)F)cc2)c(=O)c1C#N`, the Clinical observation entry was “No adverse reactions”.

In the case of `Cc1c(C#N)c(=O)n(-c2ccc(C(F)(F)F)cc2)c(=O)n1Cc1ccccc1`, the Clinical observation result was “No adverse reactions”.

As for `CC(C)OC(=O)OCCc1[nH]c(=O)n(-c2ccc(C(F)(F)F)cc2)c(=O)c1C#N`, the Clinical observation result was “No adverse reactions”.

In the case of `Cc1c(C#N)c(=O)n(-c2ccc(C(F)(F)F)cc2)c(=O)n1CC(C)C`, the Clinical observation entry was “No adverse reactions”.

Take `CC(=O)n1c(C)c(C#N)c(=O)n(-c2ccc(C(F)(F)F)cc2)c1=O`: the Clinical observation entry is recorded as “No adverse reactions”.

In the case of `CCCCCCCCCCCCCC(=O)N/C(C)=C(\C#N)C(=O)Nc1ccc(C(F)(F)F)cc1`, the Clinical observation result is given as “No adverse reactions”.

Take `CCc1c(C#N)c(=O)n(-c2ccc(C(F)(F)F)cc2)c(=O)n1C`: the Clinical observation result is on record as “No adverse reactions”.

On to `Cc1c(C#N)c(=O)n(-c2ccc(C(F)(F)F)cc2)c(=O)n1C(=O)c1ccccc1`, for which the Clinical observation entry is on record as “No adverse reactions”.

For the compound `Cc1c(C#N)c(=O)n(-c2ccc(C(F)(F)F)cc2)c(=O)n1COC(=O)C(C)(C)C`, the Clinical observation result is recorded as “No adverse reactions”.

Consider `Cc1nc(OC2CCCC2)n(-c2ccc(C(F)(F)F)cc2)c(=O)c1C#N`, for which the Clinical observation result is recorded as “No adverse reactions”.

For `CCOC(=O)OCn1c(C)c(C#N)c(=O)n(-c2ccc(C(F)(F)F)cc2)c1=O`, the Clinical observation entry is recorded as “No adverse reactions”.

On to `CC(=O)OCn1c(C)c(C#N)c(=O)n(-c2ccc(C(F)(F)F)cc2)c1=O`, for which the Clinical observation result is listed as “No adverse reactions”.

Take `Cc1c(C#N)c(=O)n(-c2ccc(C(F)(F)F)cc2)c(=O)n1C`: the Clinical observation entry is given as “No adverse reactions”.

Staying with this series, now noted: intraperitoneally once daily for 4 consecutive days.
`C/C(NC(=O)N1CCCCC1)=C(/C#N)C(=O)Nc1ccc(C(F)(F)F)cc1` registered a Tolerance dose greater than 200 mg/kg.

`COC(=O)Cn1c(C)c(C#N)c(=O)n(-c2ccc(C(F)(F)F)cc2)c1=O` came in with a Tolerance dose greater than 200 mg/kg.

`CCn1c(C)c(C#N)c(=O)n(-c2ccc(C(F)(F)F)cc2)c1=O` displayed a Tolerance dose greater than 200 mg/kg.

`Cc1c(C#N)c(=O)n(-c2ccc(C(F)(F)F)cc2)c(=O)n1COC(=O)c1ccccc1`: the Tolerance dose was greater than 200 mg/kg.

`Cc1c(C#N)c(=O)n(-c2ccc(C(F)(F)F)cc2)c(=O)n1COP(=O)(O)O` gave a Tolerance dose greater than 200 mg/kg.

Compound `Cc1[nH]c(=O)n(-c2ccc(C(F)(F)F)cc2)c(=O)c1C#N` showed a Tolerance dose greater than 200 mg/kg.

In turn, `Cc1c(C#N)c(=O)n(-c2ccc(C(F)(F)F)cc2)c(=O)n1Cc1ccccc1` showed a Tolerance dose greater than 200 mg/kg.

For `CC(C)OC(=O)OCCc1[nH]c(=O)n(-c2ccc(C(F)(F)F)cc2)c(=O)c1C#N`, the Tolerance dose is reported as greater than 200 mg/kg.

Compound `Cc1c(C#N)c(=O)n(-c2ccc(C(F)(F)F)cc2)c(=O)n1CC(C)C` came in with a Tolerance dose greater than 200 mg/kg.

Consider `CC(=O)n1c(C)c(C#N)c(=O)n(-c2ccc(C(F)(F)F)cc2)c1=O`, for which the Tolerance dose was greater than 200 mg/kg.

For the compound `CCCCCCCCCCCCCC(=O)N/C(C)=C(\C#N)C(=O)Nc1ccc(C(F)(F)F)cc1`, the Tolerance dose is given as greater than 200 mg/kg.

In the case of `CCc1c(C#N)c(=O)n(-c2ccc(C(F)(F)F)cc2)c(=O)n1C`, the Tolerance dose is given as greater than 200 mg/kg.

`Cc1c(C#N)c(=O)n(-c2ccc(C(F)(F)F)cc2)c(=O)n1C(=O)c1ccccc1` came in with a Tolerance dose greater than 200 mg/kg.

With `Cc1c(C#N)c(=O)n(-c2ccc(C(F)(F)F)cc2)c(=O)n1COC(=O)C(C)(C)C`, the Tolerance dose was greater than 200 mg/kg.

Compound `Cc1nc(OC2CCCC2)n(-c2ccc(C(F)(F)F)cc2)c(=O)c1C#N` showed a Tolerance dose greater than 200 mg/kg.

In the case of `CCOC(=O)OCn1c(C)c(C#N)c(=O)n(-c2ccc(C(F)(F)F)cc2)c1=O`, the Tolerance dose is given as greater than 200 mg/kg.

Compound `CC(=O)OCn1c(C)c(C#N)c(=O)n(-c2ccc(C(F)(F)F)cc2)c1=O` showed a Tolerance dose greater than 200 mg/kg.

Consider `Cc1c(C#N)c(=O)n(-c2ccc(C(F)(F)F)cc2)c(=O)n1C`, for which the Tolerance dose is greater than 200 mg/kg.

A further series deals with Acetic Acid-induced Writhing Response in Mice. The series can be described thus: Acetic acid-induced writhing response in mice. The conditions noted are these: 40 mg/kg oral, 0.6% acetic acid i.p. 30 min after administration.
For `C/C(=C(/C#N)C(=O)Nc1ccc(C(F)(F)F)cc1)N1CCCC1`, the “Writhing inhibition rate (%)” value is given as 73.5%.

In the case of `C/C(NO)=C(/C#N)C(=O)Nc1ccc(C(F)(F)F)cc1`, the “Writhing inhibition rate (%)” value is given as 76.7%.

With `C/C(NCC(N)C(=O)O)=C(/C#N)C(=O)Nc1ccc(C(F)(F)F)cc1` (centres unmarked), the “Writhing inhibition rate (%)” value is listed as 76.4%.

`C/C(N)=C(/C#N)C(=O)Nc1ccc(C(F)(F)F)cc1`: the “Writhing inhibition rate (%)” value is given as 74.2%.

Consider `Cc1c(C#N)c(=O)n(-c2ccc(C(F)(F)F)cc2)c(=O)n1COP(=O)(O)O`, for which the “Writhing inhibition rate (%)” value is 75.9%.

Take `N#C/C(=C\N)C(=O)Nc1ccc(C(F)(F)F)cc1`: the “Writhing inhibition rate (%)” value is 76.0%.

Take `COC(=O)[C@@H](N)[C@@H](C)OC(=O)N/C(C)=C(\C#N)C(=O)Nc1ccc(C(F)(F)F)cc1`: the “Writhing inhibition rate (%)” value stood at 80.0%.

Regarding `CS/C(C(=O)Nc1ccc(C(F)(F)F)cc1)=C(/C)OC(C)=O`, the “Writhing inhibition rate (%)” value is on record as 73.1%.

Consider `COC(=O)N/C(C)=C(\C#N)C(=O)Nc1ccc(C(F)(F)F)cc1`, for which the “Writhing inhibition rate (%)” value worked out at 80.9%.

Take `CS/C(C(=O)Nc1ccc(C(F)(F)F)cc1)=C(/C)O`: the “Writhing inhibition rate (%)” value came out at 72.7%.

With `CCc1c(C#N)c(=O)n(-c2ccc(C(F)(F)F)cc2)c(=O)n1C`, the “Writhing inhibition rate (%)” value came out at 74.4%.

On to `CCOC(=O)OC[C@H]1OC(N/C(C)=C(\C#N)C(=O)Nc2ccc(C(F)(F)F)cc2)[C@H](O)[C@@H](O)[C@@H]1O` (some centres unmarked), for which the “Writhing inhibition rate (%)” value was found to be 81.3%.

Take `Cc1nc(OC2CCCC2)n(-c2ccc(C(F)(F)F)cc2)c(=O)c1C#N`: the “Writhing inhibition rate (%)” value is reported as 68.6%.

On to `COC(=O)[C@@H](N)Cc1ccc(NC(=O)N/C(C)=C(\C#N)C(=O)Nc2ccc(C(F)(F)F)cc2)cc1`, for which the “Writhing inhibition rate (%)” value is 78.8%.

Regarding `C/C(NC(=O)Nc1ccc(C[C@H](N)C(=O)O)cc1)=C(/C#N)C(=O)Nc1ccc(C(F)(F)F)cc1`, the “Writhing inhibition rate (%)” value is on record as 82.5%.

With `C/C(=C(/C#N)C(=O)Nc1ccc(C(F)(F)F)cc1)N(C)C`, the “Writhing inhibition rate (%)” value turned out to be 88.4%.

The same series, now with this note: 40 mg/kg oral, 0.6% acetic acid i.p. 30 min after administration, x±s, n=8.
Regarding `C/C(=C(/C#N)C(=O)Nc1ccc(C(F)(F)F)cc1)N1CCCC1`, the Writhing times within 20 min was 9.1 ···.

Turning to `C/C(NO)=C(/C#N)C(=O)Nc1ccc(C(F)(F)F)cc1`, the Writhing times within 20 min is 8 ···.

Take `C/C(NCC(N)C(=O)O)=C(/C#N)C(=O)Nc1ccc(C(F)(F)F)cc1` (centres unmarked): the Writhing times within 20 min was 8.1 ···.

Consider `C/C(N)=C(/C#N)C(=O)Nc1ccc(C(F)(F)F)cc1`, for which the Writhing times within 20 min was 8.9 ···.

Consider `Cc1c(C#N)c(=O)n(-c2ccc(C(F)(F)F)cc2)c(=O)n1COP(=O)(O)O`, for which the Writhing times within 20 min is 8.3 ···.

In the case of `N#C/C(=C\N)C(=O)Nc1ccc(C(F)(F)F)cc1`, the Writhing times within 20 min was 8.3 ···.

With `COC(=O)[C@@H](N)[C@@H](C)OC(=O)N/C(C)=C(\C#N)C(=O)Nc1ccc(C(F)(F)F)cc1`, the Writhing times within 20 min was 6.9 ···.

Regarding `CS/C(C(=O)Nc1ccc(C(F)(F)F)cc1)=C(/C)OC(C)=O`, the Writhing times within 20 min was 9.3 ··.

Take `COC(=O)N/C(C)=C(\C#N)C(=O)Nc1ccc(C(F)(F)F)cc1`: the Writhing times within 20 min was 6.6 ···.

As for `CS/C(C(=O)Nc1ccc(C(F)(F)F)cc1)=C(/C)O`, the Writhing times within 20 min is 9.4 ···.

Regarding `CCc1c(C#N)c(=O)n(-c2ccc(C(F)(F)F)cc2)c(=O)n1C`, the Writhing times within 20 min was 8.8 ···.

Consider `CCOC(=O)OC[C@H]1OC(N/C(C)=C(\C#N)C(=O)Nc2ccc(C(F)(F)F)cc2)[C@H](O)[C@@H](O)[C@@H]1O` (some centres unmarked), for which the Writhing times within 20 min is 6.4 ···.

With `Cc1nc(OC2CCCC2)n(-c2ccc(C(F)(F)F)cc2)c(=O)c1C#N`, the “Writhing times within 20 min” value is given as 10.8 ± 3.2.

In the case of `COC(=O)[C@@H](N)Cc1ccc(NC(=O)N/C(C)=C(\C#N)C(=O)Nc2ccc(C(F)(F)F)cc2)cc1`, the Writhing times within 20 min is 7.3 ···.

Regarding `C/C(NC(=O)Nc1ccc(C[C@H](N)C(=O)O)cc1)=C(/C#N)C(=O)Nc1ccc(C(F)(F)F)cc1`, the Writhing times within 20 min is 6 ···.

For `C/C(=C(/C#N)C(=O)Nc1ccc(C(F)(F)F)cc1)N(C)C`, the Writhing times within 20 min was 4 ···.

The test system of another series is Experimental Autoimmune Encephalomyelitis (EAE) Mice. The series can be described thus: Experimental autoimmune encephalomyelitis (EAE) mouse model: LFB staining, IL-17A and IFN-γ detection, neurological score. The conditions noted are these: 5 mg/kg for 14 consecutive days, compared with the model group, Fig. 3.
`C/C(NC(=O)OC[C@H](N)C(=O)OC(C)C)=C(/C#N)C(=O)Nc1ccc(C(F)(F)F)cc1`: the “IL-17A level in spinal” value is given as “significantly decreased”.

For the compound `CCCCOC(=O)[C@@H](N)COC(=O)N/C(C)=C(\C#N)C(=O)Nc1ccc(C(F)(F)F)cc1`, the “IL-17A level in spinal” value was “significantly decreased”.

As for `CCOC(=O)[C@@H](N)COC(=O)N/C(C)=C(\C#N)C(=O)Nc1ccc(C(F)(F)F)cc1`, the “IL-17A level in spinal” value is given as “significantly decreased”.

Turning to `C/C(NC(=O)NCCCC[C@H](N)C(=O)O)=C(/C#N)C(=O)Nc1ccc(C(F)(F)F)cc1`, the “IL-17A level in spinal” value is listed as “significantly decreased”.

Still in this series, the particulars now being: 5 mg/kg for 14 consecutive days, compared with the model group, Fig. 4.
On to `C/C(NC(=O)OC[C@H](N)C(=O)OC(C)C)=C(/C#N)C(=O)Nc1ccc(C(F)(F)F)cc1`, for which the “IFN-γ level in spinal” value was “significantly reduced”.

Consider `CCCCOC(=O)[C@@H](N)COC(=O)N/C(C)=C(\C#N)C(=O)Nc1ccc(C(F)(F)F)cc1`, for which the “IFN-γ level in spinal” value was “significantly reduced”.

Consider `C/C(NC(=O)OC[C@H](N)C(=O)O)=C(/C#N)C(=O)Nc1ccc(C(F)(F)F)cc1`, for which the “IFN-γ level in spinal” value is “significantly reduced”.

As to `CCOC(=O)[C@@H](N)COC(=O)N/C(C)=C(\C#N)C(=O)Nc1ccc(C(F)(F)F)cc1`, the “IFN-γ level in spinal” value is on record as “significantly reduced”.

`C/C(NC(=O)NCCCC[C@H](N)C(=O)O)=C(/C#N)C(=O)Nc1ccc(C(F)(F)F)cc1`: the “IFN-γ level in spinal” value is reported as “significantly reduced”.

Values taken from EP4831156A1, “SUBSTITUTED N-(4-TRIFLUOROMETHYL)-2-CYANOCROTONAMIDE COMPOUND, PREPARATION METHOD THEREFOR, AND PHARMACEUTICAL COMPOSITION AND USE THEREOF” (dated 2026).
